From US20090042783A1, “APO E ANALOGS AND METHODS FOR THEIR USE” (priority 2004, published 2009)

Protein sequences, listed by entry. Tags and fused reporters are not part of them. Lines headed by an entry give the natural chain unless they say otherwise; changes in a name come on top.
UniProt P02649: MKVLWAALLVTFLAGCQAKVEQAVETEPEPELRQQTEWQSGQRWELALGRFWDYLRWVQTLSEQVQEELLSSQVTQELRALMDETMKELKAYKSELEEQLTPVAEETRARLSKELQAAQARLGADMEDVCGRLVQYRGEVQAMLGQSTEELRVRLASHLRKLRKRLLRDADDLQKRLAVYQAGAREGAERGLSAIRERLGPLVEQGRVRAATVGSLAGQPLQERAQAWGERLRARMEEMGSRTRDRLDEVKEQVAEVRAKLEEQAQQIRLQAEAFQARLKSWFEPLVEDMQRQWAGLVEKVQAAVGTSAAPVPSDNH

System: BV2 microglial cells
Description: For suppression of inflammation profiling, each peptide analog was tested at a final concentration of 0.1, […], 1, 3, 5, 10 and 25 μM in an LPS induced BV2 microglial cell release of NO and/or TNFα. […] The modification was a biotin label on the apoE peptide (biotin-[…]-amide) which allows detection with ^125I-streptavidin (ISA, Amersham).
In overview, BV-2 cells are plated in 96 well plates in complete media and then the media is replaced the next day with serum free media or reduced serum (1%) media. […] Each concentration of peptide (standard initial concentrations are 0.1, 0.5, 1, 3, 10 and 25 μM) is added to at least 6 wells of cells (e.g. 6 wells get 0.1 μM peptide, 6 wells get 0.5 μM peptide, etc.) and data are averaged from all 6 wells. […] (2001). Cell viability is also measured with an MTT assay (Laskowitz et al. 2001).

Row | Substance | Suppression of NO and/or TNFα release from LPS treated BV2 cells | Nitric oxide release from LPS-treated BV2 cells (Laskowitz et al. 2001) | TNFα release from LPS stimulated BV2 cells (Laskowitz et al. 2001)
1 | all-L amino acid apoE 130-150 peptide: apoE 130-150 parent peptide, all L-amino acids (TEELRVRLASHLRKLRKRLLR; UniProt P02649 148-168, looked up, fragment) | suppress both NO and TNFα release | – | –
2 | apoE 130-149: truncated apoE peptide, residues 130-149 (TEELRVRLASHLRKLRKRLL; UniProt P02649 148-167, looked up, fragment) | maintained the activity of the apoE 130-150 parent peptide | significantly reduced nitric oxide release | dose dependent inhibition of TNFα release
